Laboratory results taken from patent US6750247B2, “Sponge-derived terpenoids and methods of use” (Galileo Laboratories, Inc., priority 2001, dated 2004).

Target: T1, 15-HLO (Homo sapiens, UniProt P16050)
T1 sequence (P16050 1-662): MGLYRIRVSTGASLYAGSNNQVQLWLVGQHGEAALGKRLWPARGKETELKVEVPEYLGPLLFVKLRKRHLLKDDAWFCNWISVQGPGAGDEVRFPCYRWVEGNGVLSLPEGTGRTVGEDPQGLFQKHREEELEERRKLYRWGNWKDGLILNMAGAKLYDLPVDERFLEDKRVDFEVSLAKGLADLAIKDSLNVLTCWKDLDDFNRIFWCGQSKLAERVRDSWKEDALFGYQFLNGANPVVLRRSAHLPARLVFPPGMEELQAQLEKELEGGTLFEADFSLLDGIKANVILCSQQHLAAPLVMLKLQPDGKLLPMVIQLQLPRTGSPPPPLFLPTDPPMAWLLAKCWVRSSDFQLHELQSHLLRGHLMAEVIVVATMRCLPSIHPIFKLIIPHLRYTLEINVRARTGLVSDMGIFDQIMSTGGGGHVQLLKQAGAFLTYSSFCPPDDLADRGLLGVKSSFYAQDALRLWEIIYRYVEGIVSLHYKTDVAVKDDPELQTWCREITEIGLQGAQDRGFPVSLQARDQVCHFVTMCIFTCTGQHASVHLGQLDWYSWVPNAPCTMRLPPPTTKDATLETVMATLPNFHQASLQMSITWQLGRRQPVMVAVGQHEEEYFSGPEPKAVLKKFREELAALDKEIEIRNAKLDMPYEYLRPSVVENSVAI

CC1=C(CC/C(C)=C/Cc2cc(C(=O)O)ccc2O)[C@]2(C)CCCC(C)(C)[C@H]2CC1 [(−)-subersic acid (1), 4-hydroxy-3-[3-methyl-5-(2,5,5,8a-tetramethyl-3,4,4a,5,6,7,8,8a-octahydro-naphthalen-1-yl)-pent-2-enyl]-benzoic acid]
reduction of active site Fe(III) of 15-HLO seen by fluorescence spectroscopy: do not cause a change in the fluorescence spectroscopy of 15-HLO
